Among the data in publication PMC3905715 (Nature Communications, 2013) are binding result and Kd values, retold here.

To fix the notation:
B1: mouse Rspo2 Fu1–Fu2 (I39-G144), biotinylated, immobilised for SPR (domain or fragment, UniProt Q8BFU0 39-144, looked up)
chain: ICKGCLSCSKDNGCSRCQQKLFFFLRREGMRQYGECLHSCPSGYYGHRAPDMNRCARCRIENCDSCFSKDFCTKCKVGFYLHRGRCFDECPDGFAPLDETMECVEG
modifications: biotin at the C-terminal BirA recognition sequence
notes: R-spondin 2, mouse, residues I39-G144; also called mRspo2_(Fu1–Fu2) (I39-G144); mRSPO2(I39-G144)
B2: mouse ZNRF3 ectodomain (mZNRF3ecto, K53-L205) (domain or fragment, UniProt Q5SSZ7 53-205, looked up)
chain: KETAFVEVVLFESSPSGDYTTHTTGLTGRFSRAGAMLSAEGEIVQMHPLGLCNNNDEEDLYEYGWVGVVKLEQPELDPKPCLTVLGKAKRAVQRGATAVIFDVSENPEAIDQLNQGSEDPLKRPVVYVKGADAIKLMNIVNKQKVARARIQHL
notes: ZNRF3 ectodomain, mouse, residues K53-L205; pHLsec vector; used for crystals, ultracentrifugation and as SPR analyte; also called wt mZNRF3_(ecto); source: HEK293T, secreted, purified (HisTrap, gel filtration)
B3: mouse Rspo2 Fu1 (I39-R95), immobilised for SPR (domain or fragment, UniProt Q8BFU0 39-95, looked up)
chain: ICKGCLSCSKDNGCSRCQQKLFFFLRREGMRQYGECLHSCPSGYYGHRAPDMNRCAR
modifications: biotin at the C-terminal BirA recognition sequence
notes: R-spondin 2, mouse, Furin1 domain, residues I39-R95; also called mRspo2Fu1

The target in assay [1] is B2. As to the kind of experiment: SPR; mZNRF3ecto as analyte, biotinylated Rspo variants immobilised on streptavidin; equilibrium, 25 °C, 10 mM HEPES/NaOH pH 7.5, 150 mM NaCl, 0.005% Tween20; Biacore T200. Conditions: both partners purified. Background: SPR reads the build-up and loss of mass on a sensor chip optically.
Assay [2] has as its target T1, mouse Rspo2 Fu1 (I39-R95), immobilised for SPR (mouse, UniProt Q8BFU0 39-95, biotin at the C-terminal BirA recognition sequence).
T1 chain: B3 chain
As to the kind of experiment: SPR.

One may read the Kd as the constant that tells how readily two partners part at equilibrium. A low value points to tighter binding.

Turning to B1, in assay [1], the binding result is on record as “binds”.
Turning to B2, in assay [2], the Kd worked out at 510 nM.
For the molecule B3, the binding result in assay [1] is “binds”.
